The values that follow come from ChEMBL document CHEMBL1123047, “Quantitative evaluation of the beta 2-adrenoceptor affinity of phenoxypropanolamines and phenylethanolamines” (J Med Chem, 1985).

Chains of the proteins cited; added tags and fusions are not shown.
UniProt Q28044, whole entry: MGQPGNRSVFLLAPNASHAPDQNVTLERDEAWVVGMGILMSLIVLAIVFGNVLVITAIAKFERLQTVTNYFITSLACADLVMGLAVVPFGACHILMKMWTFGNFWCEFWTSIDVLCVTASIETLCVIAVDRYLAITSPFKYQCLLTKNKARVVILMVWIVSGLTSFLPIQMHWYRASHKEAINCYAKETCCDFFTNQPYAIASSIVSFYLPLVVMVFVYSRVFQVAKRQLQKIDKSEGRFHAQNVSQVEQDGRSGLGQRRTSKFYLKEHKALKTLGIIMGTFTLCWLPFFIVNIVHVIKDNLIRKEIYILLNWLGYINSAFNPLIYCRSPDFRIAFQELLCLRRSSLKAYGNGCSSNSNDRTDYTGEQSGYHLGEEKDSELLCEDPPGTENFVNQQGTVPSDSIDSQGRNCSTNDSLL

Structures are written as SMILES.

For experiment [1], the target named is Beta-2 adrenergic receptor (Bos taurus, UniProt Q28044). To be noted: read-out: Kd app.
Experiment [2] has as its target Beta-2 adrenergic receptor (Bos taurus) (UniProt Q28044).

In the case of `CC(C)(C)NCC(O)c1cc(Cl)c(N)c(Cl)c1` (configuration not stated) [CLENBUTEROL], in experiment [1], the Kd worked out at 36 nM. Also, the -Log KD in experiment [2] is 7.74.
